Target: human nociceptin receptor (ORL-1) (Homo sapiens, UniProt P41146)
Assay: nociceptin receptor binding assay (125I-Tyr14-nociceptin displacement, HEK293 cell membranes)
Conditions: for IC50: 125I-Tyr14-nociceptin 0.5 nM, HEK293 cell membranes; for % Inh @ 10 μM: 10 μM test compound; for % Inh @ 10 μM / % Inh @ 100 μM: inhibition of 125I-Tyr14-nociceptin binding; for % Inh @ 100 μM: 100 μM test compound

Structure (SMILES) | IC50 [nM] | % Inh @ 10 μM [%] | % Inh @ 100 μM [%]
Cc1csc(-c2ccccc2CN2CCC3(CC2)C(=O)NCN3c2ccccc2)c1 | 47 | – | –
O=C1NCN(c2ccccc2)C12CCN(Cc1ccccc1-c1ccc3ccccc3c1)CC2 | > 10000 | 28 | 31
O=C1NCN(c2cccc(Cl)c2)C12CCN(Cc1ccccc1-c1ccco1)CC2 | 43 | – | –
O=C1NCN(c2ccccc2)C12CCN(Cc1ccc(-c3cccc(C(F)(F)F)c3)cc1)CC2 | 252 | – | –
NC(=O)CN1CN(c2ccccc2)C2(CCN(Cc3ccccc3-c3cccs3)CC2)C1=O | 2.4 | – | –
COC(=O)CN1CN(c2ccccc2)C2(CCN(CCc3ccccc3-c3cccs3)CC2)C1=O | 12 | – | –
O=C(O)CN1CN(c2ccccc2)C2(CCN(CCc3ccccc3-c3cccs3)CC2)C1=O | 79 | – | –
O=C1NCN(c2ccccc2)C12CCN(Cc1ccccc1Oc1ccccc1)CC2 | 8.5 | – | –
O=C1NCN(c2ccccc2)C12CCN(Cc1cccc(CN3CCCCC3)c1)CC2 | 3490 | 52 | –
O=C1CCCCN1Cc1cccc(CN2CCC3(CC2)C(=O)NCN3c2ccccc2)c1 | 1230 | – | –
O=C1NCN(c2ccccc2)C12CCN(Cc1cccc(CN3CCCc4ccccc43)c1)CC2 | 830 | – | –
O=C1NCN(c2ccccc2)C12CCN(Cc1ccc(-c3cccnc3)cc1)CC2 | 1140 | – | –
O=C1NCN(c2ccccc2)C12CCN(Cc1ccc(CN3CCCc4ccccc43)cc1)CC2 | 1630 | – | –
O=C1NCN(c2ccccc2)C12CCN(Cc1cccc(COc3cccc(Cl)c3)c1)CC2 | 610 | – | –
Cc1ccc(-c2ccccc2CN2CCC3(CC2)C(=O)NCN3c2ccccc2)s1 | 378 | – | –
O=C1NCN(c2cccc(C(F)(F)F)c2)C12CCN(Cc1ccccc1-c1ccco1)CC2 | 20.1 | – | –
O=C1NCN(c2ccccc2)C12CCN(Cc1ccc(Cn3ccnc3)cc1)CC2 | > 10000 | 17 | –
O=C1NCN(c2ccccc2)C12CCN(Cc1sccc1-c1cccs1)CC2 | 11 | – | –
Cc1ccc(-c2ccc(CN3CCC4(CC3)C(=O)NCN4c3ccccc3)cc2)cc1 | 223 | – | –
O=C1NCN(c2ccccc2)C12CCN(Cc1ccccc1-c1cccc(C(F)(F)F)c1)CC2 | 271 | – | –
O=C1NCN(c2ccccc2)C12CCN(Cc1ccccc1-c1cccs1)CC2 | 6 | – | –
O=C1NCN(c2ccccc2)C12CCN(Cc1ccccc1-c1ccncc1)CC2 | 1300 | – | –
O=C1NCN(c2ccccc2)C12CCN(Cc1ccc(F)cc1-c1cccs1)CC2 | 6 | – | –

Structure (SMILES) | IC50 [nM] | % Inh @ 10 μM [%] | % Inh @ 100 μM [%]
O=C1NCN(c2ccccc2)C12CCN(Cc1c(F)cccc1-c1ccsc1)CC2 | 13 | – | –
CCN(CC)CCN1CN(c2ccccc2)C2(CCN(CCc3ccccc3-c3cccs3)CC2)C1=O | 22 | – | –
O=C1NCN(c2ccccc2)C12CCN(Cc1ccccc1-c1ccoc1)CC2 | 7 | – | –
CN(C)CCN1CN(c2ccccc2)C2(CCN(Cc3ccccc3-c3cccs3)CC2)C1=O | 2.5 | – | –
O=C1NCN(c2ccccc2)C12CCN(Cc1ccc(OC3CCCc4ccccc43)cc1)CC2 (centres unmarked) | 388 | – | –
O=C1NCN(c2ccccc2)C12CCN(Cc1cccc(-c3ccsc3)c1)CC2 | 608 | – | –
O=C1NCN(c2ccccc2)C12CCN(Cc1cc(C(F)(F)F)ccc1-c1cccs1)CC2 | 1300 | – | 64
O=C1NCN(c2ccccc2)C12CCN(Cc1ccc(-c3ccccc3)cc1)CC2 | 484 | – | –
O=C1NCN(c2ccccc2)C12CCN(CCc1ccccc1-c1ccsc1)CC2 | 7.6 | – | –
O=C1NCN(c2ccccc2)C12CCN(Cc1cc(F)ccc1-c1cccs1)CC2 | 21 | – | –
CCN(CC)CCN1CN(c2ccccc2)C2(CCN(Cc3ccccc3-c3cccs3)CC2)C1=O | 8 | – | –
O=C1NCN(c2ccccc2)C12CCN(Cc1ccccc1-c1nccs1)CC2 | 32 | – | –
O=C1NCN(c2ccccc2)C12CCN(Cc1ccc(CN3CCCC3)cc1)CC2 | > 10000 | 16 | –
O=C1NCN(c2ccccc2)C12CCN(Cc1cccc(-c3ccccc3)c1)CC2 | 4100 | – | –
COC(=O)CN1CN(c2ccccc2)C2(CCN(Cc3ccccc3-c3cccs3)CC2)C1=O | 1 | – | –
O=C1NCN(c2ccccc2)C12CCN(CCCCc1ccccc1-c1cccs1)CC2 | 110 | – | –
O=C1NCN(c2ccccc2)C12CCN(Cc1ccccc1-c1cc3ccccc3s1)CC2 | > 10000 | 15.5 | 25
O=C1N(CCO)CN(c2ccccc2)C12CCN(Cc1ccccc1-c1cccs1)CC2 | 1.1 | – | –
O=C1NCN(c2ccccc2)C12CCN(CCCc1ccccc1-c1ccsc1)CC2 | 11 | – | –
O=C1NCN(c2ccccc2)C12CCN(Cc1ccccc1COc1ccccc1)CC2 | 603 | – | –
O=C1NCN(c2ccccc2)C12CCN(Cc1cccc(COc3ccccc3)c1)CC2 | 348 | – | –
Cc1cc(N2CNC(=O)C23CCN(Cc2ccccc2-c2cccs2)CC3)cc(C)c1F | 109 | – | –
O=C(O)CN1CN(c2ccccc2)C2(CCN(Cc3ccccc3-c3cccs3)CC2)C1=O | 8.4 | – | –

Structure (SMILES) | IC50 [nM] | % Inh @ 10 μM [%] | % Inh @ 100 μM [%]
O=C1NCN(c2cccc(Cl)c2)C12CCN(Cc1ccccc1-c1cccs1)CC2 | 16 | – | –
CC1CN(Cc2ccccc2-c2ccco2)CCC12C(=O)NCN2c1ccc(F)cc1 (centres unmarked) | 2.6 | – | –
COc1ccc(-c2ccc(CN3CCC4(CC3)C(=O)NCN4c3ccccc3)cc2)cc1 | 194 | – | –
Cc1cc(N2CNC(=O)C23CCN(Cc2ccccc2-c2ccco2)CC3)cc(C)c1F | 155 | – | –
O=C1NCN(c2ccccc2)C12CCN(Cc1ccc(-c3cccc4ccccc34)cc1)CC2 | 383 | – | –
O=C1CCCCN1Cc1ccc(CN2CCC3(CC2)C(=O)NCN3c2ccccc2)cc1 | > 10000 | 0 | –
O=C1NCN(c2ccccc2)C12CCN(Cc1ccccc1-c1ccc3[nH]ccc3c1)CC2 | 1100 | – | –
O=C1NCN(c2ccccc2)C12CCN(Cc1cccc(OC3CCCc4ccccc43)c1)CC2 (centres unmarked) | 632 | – | –
O=C1NCN(c2ccccc2)C12CCN(Cc1ccc(-c3ccc(Br)cc3)o1)CC2 | 433 | – | –
O=C1NCN(c2ccccc2)C12CCN(Cc1ccc(-c3cc(Cl)cc(Cl)c3)cc1)CC2 | 258 | – | –
O=C1NCN(c2ccccc2)C12CCN(Cc1cccc(Cn3ccnc3)c1)CC2 | 1700 | – | –
CC(=O)c1ccc(-c2ccccc2CN2CCC3(CC2)C(=O)NCN3c2ccccc2)s1 | 3200 | – | –
O=C1NCN(c2ccccc2)C12CCN(Cc1cccc(CN3CCc4ccccc4C3)c1)CC2 | > 10000 | 33 | –
O=C(Oc1ccc(OCc2cccc(CN3CCC4(CC3)C(=O)NCN4c3ccccc3)c2)cc1)c1ccccc1 | 2700 | – | –
O=C1NCN(c2ccccc2)C12CCN(CCc1cccc(-c3cccs3)c1)CC2 | 338 | – | –
O=C1NCN(c2ccccc2)C12CCN(Cc1ccccc1/C=C/c1ccccc1)CC2 | 158 | – | –
O=C1NCN(c2ccccc2)C12CCN(Cc1ccccc1-c1ccc[nH]1)CC2 | 54 | – | –
O=C1NCN(c2ccccc2)C12CCN(Cc1cccc(COc3ccc(Cl)cc3)c1)CC2 | 786 | – | –
CN(C)CCN1CN(c2ccccc2)C2(CCN(CCc3ccccc3-c3cccs3)CC2)C1=O | 14 | – | –
O=C1NCN(c2ccccc2)C12CCN(Cc1ccc(CN3CCCCC3)cc1)CC2 | > 10000 | 30 | –
Cc1ccc(N2CNC(=O)C23CCN(Cc2ccccc2-c2ccco2)CC3)cc1 | 30.3 | – | –
O=C1NCN(c2ccccc2)C12CCN(Cc1cccc(-c3cccc(C(F)(F)F)c3)c1)CC2 | 264 | – | –
Cn1ncc(-c2cccs2)c1CN1CCC2(CC1)C(=O)NCN2c1ccccc1 | 300 | – | –

Reference: US7053101B2, “1,3,8-triazaspiro[4,5]decan-4-one derivatives useful for the treatment of ORL-1 receptor mediated disorders” (dated 2006)
